{"source": "paper PMC11209756", "molecular_target": "^HCCCT1^CBP368 holocomplex (human) (UniProt P17987)", "assay": "native gel or EMSA"}
{"substance": "^35S-HIS-ACTB (denatured β-actin) (from UniProt P60709 1-375) (natural protein)", "values": [{"measurement": "percent of binding relative to TRiC", "value": 40, "unit": "%"}]}
